Reference: patent US10405569B2, “Lanctobacillus plantarum HAC01 strain having anti-inflammatory efficacy and metabolic disease alleviating efficacy and use thereof” (ATOGEN CO., LTD., priority 2014, dated 2019)

In the case of Lactobacillus rhamnosus GG, the “After one hour at pH 3.0 (viable cell count)” value (1 hour, pH 3.0, 37° C.) is reported as 8.54 ± 0.281 logCFU/mL, the “After two or more hours in 3.25% oxgall (viable cell count)” value (after pH 3.0 step, bile juice and duodenum juice, 37° C.) is reported as 6.82 ± 0.064 logCFU/mL and the Initial cell count (cells re-suspended in MRS broth pH 3, before incubation) is reported as 9.12 ± 0.311 logCFU/mL. It also gave an Overall survival rate (viable cells after 3 hours vs initial cells) of 0.54 ± 0.293%.
